Test results from PMC5898815 (Journal of medicinal chemistry, 2018).

Tests used:
DCN1 = DCN1 (Homo sapiens, UniProt Q96GG9); assay: Isothermal titration calorimetry, equilibrium binding; conditions: versus compound 1
DCN1 and DCN2 = assay: Pulse-chase isoform selectivity, NEDD8 transfer from UBE2M to CUL2; format: biochemical, human; conditions: pulse-chase assay against all five DCN family members
[1] = target: DCN1-UBE2M protein-protein interaction (Homo sapiens, UniProt Q96GG9); format: binding

CCCC(C)N1CCC(N(Cc2ccccc2)C(=O)Nc2cccc(C(F)(F)F)c2)CC1 (stereo not drawn) [Compound 52, 1-benzyl-1-(1-(pentan-2-yl)piperidin-4-yl)-3-(3-(trifluoromethyl)phenyl)urea]
Fold tighter binding to DCN1 compared to HTS hit 1 (DCN1): ten-fold more tightly bound
Selectivity for inhibiting neddylation activity of DCN1 and DCN2 over DCN3-5 (DCN1 and DCN2): highly selective
Fold increase in biochemical TR-FRET potency compared to HTS hit 1 [1]: 100 fold
